Assays:
Conditions in all cases: Homo sapiens
[1] = substrate: COC(=O)NCCc1n[nH]c2c1C(=O)C=C(C)C2=O
[2] = substrate: COC(=O)NCCc1n[nH]c2c1C(=O)C=C(Nc1ccc(C)cc1)C2=O
[3] = substrate: COC(=O)NCCc1n[nH]c2c1C(=O)C=C(Nc1ccc(OC)cc1)C2=O
[4] = substrate: COC(=O)NCCc1n[nH]c2c1C(=O)C=C(Nc1ccccc1)C2=O
[5] = substrate: COC(=O)NCCc1n[nH]c2c1C(=O)C=C(Nc1ccccc1OC)C2=O
[6] = substrate: COC(=O)NCCc1n[nH]c2c1C(=O)C=C(OC)C2=O
[7] = substrate: COC(=O)NCCc1n[nH]c2c1C(=O)c1ccccc1C2=O
[8] = substrate: COC1=CC(=O)c2c(CCNC(=O)OCc3ccccc3)n[nH]c2C1=O

B1: Carbonyl reductase [NADPH] 1 (Homo sapiens), P16152 (protein)
chain: MSSGIHVALVTGGNKGIGLAIVRDLCRLFSGDVVLTARDVTRGQAAVQQLQAEGLSPRFHQLDIDDLQSIRALRDFLRKEYGGLDVLVNNAGIAFKVADPTPFHIQAEVTMKTNFFGTRDVCTELLPLIKPQGRVVNVSSIMSVRALKSCSPELQQKFRSETITEEELVGLMNKFVEDTKKGVHQKEGWPSSAYGVTKIGVTVLSRIHARKLSEQRKGDKILLNACCPGWVRTDMAGPKATKSPEEGAETPVYLALLPPDAEGPHGQFVSEKRVEQW
kcat/Km [1]: 5600 M⁻¹ s⁻¹ | kcat/Km [2]: 12000 M⁻¹ s⁻¹ | kcat/Km [3]: 5100 M⁻¹ s⁻¹ | kcat/Km [4]: 4800 M⁻¹ s⁻¹ | kcat/Km [5]: 3000 M⁻¹ s⁻¹ | kcat/Km [6]: 170000 M⁻¹ s⁻¹ | kcat/Km [7]: 8200 M⁻¹ s⁻¹ | kcat/Km [8]: 87000 M⁻¹ s⁻¹

Reference: ChEMBL document CHEMBL1157700, “Synthesis of 3-[(N-carboalkoxy)ethylamino]-indazole-dione derivatives and their biological activities on human liver carbonyl reductase” (Bioorg Med Chem, 2010)
